Screening results: PubChem, Broad Institute
Sampled rows, rich in hits. Any-hit rate of the full collection: about 2.8%.
PGC1a acetyl inh: inhibitors of PGC1a acetylation signal, primary screen, cell-based, U2OS, AlphaScreen, inhibitor mode; AlphaScreen anti-acetyl-lysine; with virally co-expressed GCN5 acetyltransferase; inhibition, % at 15.6 µM; actives 0.17% (n = 350,000);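 active means every replicate shows inhibition of at least 40%; inconclusive means mean inhibition at least 40% but some replicate below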;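 further: 0% = neutral control wells and 100% = positive control wells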
C2C12 statin: suppressors of statin myotoxicity in C2C12 myotubes, primary screen, cell-based, single point, plate reader; C2C12 myotubes + simvastatin, ATP luminescence, 48 h; scaled: DMSO 0, geranylgeraniol control 100; AID 602340, 2012; actives 0.78% (n = 330,000); rescue of ATP level, % at 7.49 µM;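 active means mean ATP rescue above about 67%, or every replicate alone reaching that limit, limit read from the data, passing the limit was not always enough; inconclusive means no clear call, values can overlap the other calls; inactive means mean under the limit and some replicate under it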;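 further: myotubes were challenged with 10 µM simvastatin during compound exposure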
PglD DTNB: C. jejuni PglD acetyltransferase inhibitors, primary screen, biochemical, DTNB colorimetric, single point. UDP-N-acetylbacillosamine N-acetyltransferase PglD (Campylobacter jejuni). inhibition, % at 12.5 µM. actives 0.098% (n = 360,000). purified PglD enzyme, DTNB colorimetric CoA detection; in the data active means inhibition above about 16%, passing the limit was not always enough; inconclusive means no clear call, values can overlap the other calls
esBAF inh: Bmi1 luciferase reporter increase in mESCs, primary screen, esBAF inhibitor project, mouse ES cells, Bmi1 luciferase knock-in, single point; AID 602393, 2012; 24 h; 100% = twice the neutral-well signal; reporter increase, % at 12.5 µM; actives 2% (n = 350,000); in the data active means activation above about 40%; inconclusive means no clear call, values can overlap the other calls;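 further: 0% = median of the plate's neutral control wells and 100% = double that signal; a rise in the Bmi1 reporter signal indicates esBAF inhibition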
Yeast UUG start: modulators of yeast start codon fidelity, primary screen, whole organism, S. cerevisiae, single point, plate reader; S. cerevisiae UUG-firefly luciferase reporter, luminescence/redox ratio; activity score, % at 18.7 µM; 0.13% of 350,000 active; AID 602363, 2012;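 active = replicate mean at a twofold rise or more, about +100% in these data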;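 also: firefly luciferase made from a UUG start codon reports start codon fidelity; reporter light over untreated wells divided by growth signal over untreated wells; some hits fall short of that in this replicate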
E-sel inducer: E-selectin induction in HUVECs, primary screen, imaging, HUVEC, immunofluorescence imaging, single point; activation, % at 7.58 µM; P16581; AID 686992, 2013; normalized: neutral wells 0, TNF-alpha wells 100; actives 0.37% (n = 260,000);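 active means mean E-selectin-positive cell signal at least 10% of the positive control, reached in at least 60% of replicates, without over 20% cell loss; inconclusive means no rule given, readout overlaps actives, possibly toxicity-flagged; inactive means the rest, including those meeting only one limit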
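Material: HUVEC primary endothelial cells; Amount: 3,000 cells per well; Dosing: single concentration; Medium: EGM-2 growth medium on 0.1% gelatin-coated wells; Read-out basis: percent E-selectin-positive cells; Signal: immunofluorescence imaging; Control set: TNF-alpha, DMSO.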
* hit, by the source's call; ? = inconclusive; nt = no result.

| entry | molecule | PGC1a acetyl inh | C2C12 statin | PglD DTNB | esBAF inh | Yeast UUG start | E-sel inducer |
| --- | --- | --- | --- | --- | --- | --- | --- |
| 1 | Cc1noc(C)c1S(=O)(=O)N(C)C[C@H]1Oc2ccc(NS(=O)(=O)c3ccc(F)cc3)cc2CC(=O)N([C@@H](C)CO)C[C@H]1C | -3.6 | -5.5 | nt | -4.0 | nt | 0.1 |
| 2 | CCCN(C)C[C@@H]1Oc2ncc(C#CCN(C)C)cc2C(=O)N([C@H](C)CO)C[C@@H]1C | 0.1 | 21.3 | -0.9 | -0.1 | 9.6 | -0.1 |
| 3 | C[C@@H]1CN([C@H](C)CO)C(=O)c2cc(NC(=O)Nc3ccc(F)cc3)ccc2O[C@@H](C)CCCCO[C@@H]1CN(C)C(=O)c1ccccc1 | 1.7 | nt | 8.4 | 0.0 | 1.1 | 0.0 |
| 4 | Cc1ccc(Cl)cc1NS(=O)(=O)c1c(C)[nH]c(=O)[nH]c1=O | 7.4 | -1.9 | 3.0 | -6.6 | -14.1 | nt |
| 5 | COc1ccc(Cl)cc1NS(=O)(=O)c1c(C)[nH]c(=O)[nH]c1=O | 7.8 | 86.9* | -4.4 | -17.8 | -4.5 | 0.4 |
| 6 | Cn1c2ccccc2c2nnc(NN)nc21 | -2.2 | -10.6 | -3.2 | 5.0 | -13.5 | 0.1 |
| 7 | CCCCc1c(C)nn(-c2nnc3c4ccccc4n(C)c3n2)c1C | 9.2 | -29.6 | -2.2 | 47.8* | -12.7 | nt |
| 8 | COc1ccc(NC(=O)CC2C(=O)N(c3cccc(OC)c3)C(=O)N2C(C)C)cc1 (configuration not stated) | 8.0 | 1.3 | -1.4 | -2.5 | -27.1 | -0.1 |
| 9 | COc1ccc(NC(=O)CC2C(=O)N(c3cccc(OC)c3)C(=O)N2CCC(C)C)cc1 (configuration not stated) | 3.4 | 92.5* | 2.9 | 2.1 | -5.8 | nt |
| 10 | COc1ccc(C(=O)N2CC=C(c3ccccc3)CC2)cc1S(=O)(=O)N1CCOCC1 | 7.3 | 82.5* | -4.0 | -3.4 | -14.3 | nt |
| 11 | COc1ccc(NC(=O)c2ccc(-c3ccccc3)cc2)cc1S(=O)(=O)N1CCOCC1 | -0.3 | nt | nt | nt | nt | nt |
| 12 | Cc1noc(C)c1S(=O)(=O)Nc1ccc2c(c1)CC(=O)N([C@H](C)CO)C[C@@H](C)[C@H](CN(C)Cc1ccncc1)O2 | 5.0 | -3.8 | 2.8 | -1.8 | -10.5 | nt |
| 13 | CCN1/C(=C/C=C/c2oc3ccc(-c4ccccc4)cc3[n+]2CC)Oc2ccc(-c3ccccc3)cc21 | 34.0 | -97.3 | -1.1 | -85.4 | -4.2 | 217.7* |
| 14 | CCN1/C(=C/C=C/c2sc3ccccc3[n+]2CC)Sc2ccccc21 | -2.5 | -163.3 | -1.8 | -69.9 | -3.9 | nt |
| 15 | COc1cccc(C#Cc2ccc([C@@H]3[C@H](CO)N4C(=O)CN(C(=O)c5ccncc5)C[C@@H]34)cc2)c1 | -10.3 | nt | nt | nt | nt | -0.1 |
| 16 | Cc1noc(C)c1S(=O)(=O)N(C)C[C@@H]1Oc2ccc(NC(=O)Nc3ccc4c(c3)OCO4)cc2C(=O)N([C@@H](C)CO)C[C@@H]1C | 1.8 | -47.4 | -3.3 | 6.1 | 4.9 | 0.0 |
| 17 | O=C(CCSc1ccc(Cl)cc1)N1CCCCCC1 | -16.6 | 2.5 | 8.2 | 86.0* | -1.9 | nt |
| 18 | NC(=O)C1CCN(C(=O)CCSc2ccc(Cl)cc2)CC1 | nt | 6.2 | 7.0 | 12.6 | 4.6 | nt |
| 19 | O=C(CSc1ccc(Cl)cc1)N1CCN(c2c(Cl)cccc2[N+](=O)[O-])CC1 | -1.2 | 67.1* | -0.4 | ? | -24.4 | nt |
| 20 | O=C(/C=C/c1ccc(Cl)cc1)N1CCN(c2c(Cl)cccc2[N+](=O)[O-])CC1 | nt | nt | -4.4 | nt | -12.7 | -1.4 |
| 21 | O=C(CCSc1ccc(Cl)cc1)N1CCN(c2ncccn2)CC1 | -1.6 | 13.6 | 3.3 | 42.1* | 0.3 | nt |
| 22 | Cc1ccc(S(=O)(=O)Nc2cccc3c2O[C@@H](CN(C)CC2CCCCC2)[C@@H](C)CN([C@H](C)CO)C3=O)cc1 | -7.1 | -30.4 | 1.6 | -2.8 | 3.1 | 0.6 |
| 23 | C[C@H](CO)N1C[C@H](C)[C@H](CN(C)C(=O)Nc2cccc3ccccc23)Oc2ccc(NC(=O)C3CC3)cc2CC1=O | -9.3 | 20.7 | nt | -2.5 | nt | -0.3 |
| 24 | Cc1nc(-c2ccccc2)nc2[nH]c(=O)n(-c3ccccc3)c(=O)c12 | -11.6 | 5.0 | -0.8 | 42.9* | -9.1 | -2.3 |
| 25 | COc1ccc(C(=O)OCc2cc(=O)n3c(C)csc3n2)cc1F | -4.2 | -3.9 | 2.3 | 72.7* | -0.9 | 0.6 |
| 26 | CCN(CCN(C)C)C(=O)Cn1ncc2c1-c1cc(C)ccc1OC2 | 6.8 | -4.5 | 1.2 | -3.4 | -18.5 | nt |
| 27 | Cc1ccc2c(c1)-c1c(cnn1CC(=O)O)CO2 | 1.6 | 92.4* | -4.2 | 8.6 | -22.4 | nt |
| 28 | c1ccc(CSc2nnc(-c3cccs3)o2)cc1 | -4.7 | -3.4 | -3.1 | 47.4* | -31.4 | nt |
| 29 | c1ccc(-c2nnc(CSc3nnc(-c4cccs4)o3)o2)cc1 | 5.2 | 1.0 | 0.3 | -1.8 | -11.5 | -1.6 |
| 30 | Cn1c(SCc2ccccc2)nnc1-c1cccs1 | -0.4 | 7.8 | 5.1 | 59.2* | 1.4 | nt |

A few values from above.
O=C(/C=C/c1ccc(Cl)cc1)N1CCN(c2c(Cl)cccc2[N+](=O)[O-])CC1 in PglD DTNB → -4.4
COc1ccc(C(=O)OCc2cc(=O)n3c(C)csc3n2)cc1F in esBAF inh → 72.7*
COc1ccc(NC(=O)CC2C(=O)N(c3cccc(OC)c3)C(=O)N2CCC(C)C)cc1 (configuration not stated) in PglD DTNB → 2.9

Continuation:
| entry | molecule | PGC1a acetyl inh | C2C12 statin | PglD DTNB | esBAF inh | Yeast UUG start | E-sel inducer |
| --- | --- | --- | --- | --- | --- | --- | --- |
| 31 | CC1CCCC(C)N1C(=O)CSc1nnc(-c2cccs2)o1 (configuration not stated) | -5.9 | 1.8 | 2.5 | 45.8* | -23.9 | nt |
| 32 | Cc1cccc(-c2nnc(SCc3ccccc3)o2)c1 | 1.8 | 9.9 | -5.1 | 62.5* | -18.8 | 0.2 |
| 33 | CN(C)CCCNC(=O)C[C@H]1CC[C@H]2[C@H](COc3ccc(NC(=O)c4cccc(F)c4)cc3C(=O)N2C)O1 | 0.4 | -17.7 | 1.3 | 9.5 | -9.0 | 0.2 |
| 34 | C/C=C/c1ccc([C@H]2[C@H](CO)N[C@H]2CN(C(=O)C2CCC2)C(C)C)cc1 | -3.0 | -10.8 | -0.3 | 0.6 | -10.3 | 0.0 |
| 35 | Clc1ccccc1-c1nnc(-c2cccnc2)o1 | 8.6 | 20.8 | -2.7 | 36.7 | -10.1 | -0.1 |
| 36 | CC1CCCC(C)N1C(=O)c1cc(-c2cccs2)on1 (configuration not stated) | nt | -10.3 | 1.3 | 48.1* | -16.0 | nt |
| 37 | Clc1ccccc1-c1nnc(-c2cccs2)o1 | -2.4 | 8.2 | -6.6 | 46.0* | -21.1 | nt |
| 38 | CCSc1nnc(-c2cccs2)o1 | -5.3 | 8.2 | nt | 43.6* | nt | nt |
| 39 | CC(=O)N1[C@@H](CO)[C@@H](c2ccccc2)C12CN(C(=O)c1ccccn1)C2 | -2.2 | nt | nt | nt | nt | 0.3 |
| 40 | CN(C)c1ccc2c(c1)[C@H]1C[C@H](CC(=O)NC3CCCC3)O[C@H](CO)[C@H]1O2 | -19.3 | -3.4 | -1.6 | 5.2 | -8.4 | -0.1 |
| 41 | Cc1ccccc1CNCc1cccnc1 | 0.2 | 0.7 | nt | -1.6 | nt | nt |
| 42 | O=C(Nc1ccc(N2CCCCC2)cc1)c1cccnc1 | 5.3 | -31.4 | -4.4 | 61.9* | -22.2 | nt |
| 43 | CCc1ccc(NC(=O)c2cccnc2)cc1 | -48.5 | 14.6 | -2.3 | 46.0* | -10.3 | nt |
| 44 | CCc1ccc(CNCc2cccnc2)cc1 | 10.4 | 113.8* | 1.3 | 5.6 | -20.6 | nt |
| 45 | O=C(Nc1ccc(N2CCN(Cc3ccccc3Cl)CC2)cc1)c1cccnc1 | -23.9 | 1.8 | -5.2 | 13.2 | -4.4 | nt |

Along the list, from the results shown.
Yeast UUG start for entries 11–22 → nt, -10.5, -4.2, -3.9, nt, 4.9, -1.9, 4.6, -24.4, -12.7, 0.3, 3.1
C2C12 statin for entries 11–22 → nt, -3.8, -97.3, -163.3, nt, -47.4, 2.5, 6.2, 67.1*, nt, 13.6, -30.4
PGC1a acetyl inh for entries 11–22 → -0.3, 5.0, 34.0, -2.5, -10.3, 1.8, -16.6, nt, -1.2, nt, -1.6, -7.1
